# Experimental data as given in US9051418B2, “Glucose-PEG conjugates for reducing glucose transport into a cell” (Agency for Science, Technology and Research, priority 2008, dated 2015).
# What was measured:
# MCF-7 cells = assay: MTT cell viability assay, MCF-7 cells cultured 7 days with modified glucose; conditions: for cell viability: control without treatment = 100%
# Procedure: MCF-7 cells were seeded onto 96-well plates at least 24 h prior to the experiment. […] MTT assay was performed to assess the cell viability. […] Cell viability was normalized with that of the control cells. […] The cells were treated as described in FIG. 3, followed by the MTT assay. […] MTT assay was carried out to monitor the viability of the cells. Values obtained for the cells without any treatments were kept as 100%. Different cancer cell lines, MCF-7 (breast cancer), H1299 (lung cancer), HepG2 (liver cancer), DU145 (prostate cancer), Caco2 (colon cancer) and AGS (gastric cancer) were obtained from American Type Culture Collection (ATCC). Normal breast epithelial cell line (MCF-10A) was used for comparison. The cells were maintained in the growth medium as described by ATCC. Approximately 10,000 cells were seeded onto a 96-well plate. Modified glucose compounds were added to the cells after 24 h of seeding. The cells were further cultured in the presence of the modified glucose compounds for up to 7 days. The medium was changed everyday along with the specified concentration of modified glucose. […] MTT assay was performed using the TACS™ MTT cell proliferation assay kit (Trevigen Inc, Md., USA). Briefly, after treatment of cells, 10 μl of MTT reagent was added and incubated at 37° C. for 4 h. The cells were lysed using detergent for 4 h at room temperature. The absorbance was measured in a standard plate reader at 570 nm.
# MCF-10A = conditions: 200 μM, MTT
# Procedure: MTT assay was carried out to monitor the viability of the cells. Values obtained for the cells without any treatments were kept as 100%.
# Different cancer cell lines, MCF-7 (breast cancer), H1299 (lung cancer), HepG2 (liver cancer), DU145 (prostate cancer), Caco2 (colon cancer) and AGS (gastric cancer) were obtained from American Type Culture Collection (ATCC). Normal breast epithelial cell line (MCF-10A) was used for comparison. The cells were maintained in the growth medium as described by ATCC. Approximately 10,000 cells were seeded onto a 96-well plate. Modified glucose compounds were added to the cells after 24 h of seeding. The cells were further cultured in the presence of the modified glucose compounds for up to 7 days. The medium was changed everyday along with the specified concentration of modified glucose.
# MTT assay was performed using the TACS™ MTT cell proliferation assay kit (Trevigen Inc, Md., USA). Briefly, after treatment of cells, 10 μl of MTT reagent was added and incubated at 37° C. for 4 h. The cells were lysed using detergent for 4 h at room temperature. The absorbance was measured in a standard plate reader at 570 nm.
Substance,"cell viability (MCF-7 cells; MCF-7, 200 μM) [%]","cell viability (MCF-7 cells; MCF-7, 400 μM) [%]",reduction in viability of normal breast cells (MCF-10A) [%],"reduction in cell viability (MCF-7 cells; MCF-7, 200 μM, MTT, relative to untreated control) [%]"
glucose-PEG-PEG [GPP],57,42,–,–
glucose-conjugated branched PEG [GBrP],–,–,29,> 90
